Test results published in patent publication US8673890B2, “2,3-dihydro-1H-isoindol-1-imine derivatives useful as thrombin PAR-1 receptor antagonist” (Janssen Pharmaceutica NV, priority 2009, dated 2014).
“And” between values parts separate entries of the source, which are not always exact repeats. Equal entries are not always repeated.

Amino acid sequences for entries named in this document (tags omitted). Residues count along the entry.
UniProt P25116, 22-425 limits assumed: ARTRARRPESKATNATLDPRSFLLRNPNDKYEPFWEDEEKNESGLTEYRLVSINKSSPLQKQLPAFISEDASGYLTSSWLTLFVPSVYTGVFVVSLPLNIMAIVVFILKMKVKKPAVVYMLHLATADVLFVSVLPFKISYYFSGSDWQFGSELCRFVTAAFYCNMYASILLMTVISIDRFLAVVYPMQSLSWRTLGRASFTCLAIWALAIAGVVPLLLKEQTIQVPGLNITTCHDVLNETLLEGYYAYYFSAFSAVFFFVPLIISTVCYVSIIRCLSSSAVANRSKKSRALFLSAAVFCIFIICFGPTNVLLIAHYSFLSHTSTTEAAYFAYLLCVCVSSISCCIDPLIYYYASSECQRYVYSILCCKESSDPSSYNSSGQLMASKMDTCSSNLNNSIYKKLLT

Experiments:
[1] = molecular target: thrombin receptor (PAR-1) (Homo sapiens, UniProt P25116); assay: FLIPR-based calcium-flux assay with human smooth muscle cells (Har peptide agonist); settings: read-out: FLIPR-HSMC IC50 (μM) 80-min drug incubation, 30 nM Har (PAR1) peptide agonist, multiple values = individual measurements
Method: Human aortic smooth muscle cells (HSMC) were purchased from Cascade Biologics (Portland, Oreg.) and cultured in M-231 containing smooth muscle cell growth supplement and 1× Antibiotic-Antimycotic.
To determine agonist concentration for compound testing: On the day prior to the assay, 100 μL of cells (2×10^5/mL) were seeded in clear, flat-bottom black-wall, tissue culture treated polystyrene 96-well plates and incubated at 37° C., 5% CO2. On the day of the assay, 50 μL of complete dye loading solution (FLIPR Calcium 3 Kit, Molecular Devices) was added to each well containing 100 μL of culture media. The cells were incubated for 30-45 min at 37° C., in 5% CO2 before initiating the assay on the FLIPR. The agonist effect of PAR1 peptide (S-(p-F-Phe)-Har-L-Har-KY-NH2; Har=homoarginine; referred to herein as “Har” peptide) was tested and the EC50 was determined. The EC60-70 dose was used (30 nM) for compound testing.
Compound testing: On the day prior to the assay, 90 μL of cells (2.2×10^5/mL) were seeded in clear, flat-bottom black-wall, tissue culture treated polystyrene 96-well plates and incubated at 37° C., 5% CO2. On the day of the assay, the test compounds were prepared at 10× in 3% DMSO Hanks buffer and 10 μL was added to each well (final DMSO concentration of 0.3%). The cells were incubated 20 min at 37° C., 5% CO2. Culture medium containing testing compounds was dumped and the cells were washed four times with DPBS containing 0.1% of BSA and re-fed with 80 μL of growth medium. 70 μL of BD (fluorescent) dye was loaded to the cells and incubated 45 min at 37° C. incubator. The plates were equilibrated to room temperature for 15 min. 4× PAR1 peptide (30 nM final concentration) agonist plate and the cell plate were placed in FLIPR's assay chamber. 50 μL agonist was added to the cells and data was recorded for 5 min. Raw fluorescence data was exported for each well and tabulated versus time within an ASCII file. Data was then imported into Excel® and the peak response over basal level was determined. The percent inhibition for each test compound was calculated by the changes of fluorescent density as a % inhibition of the control Har peptide response to obtain an IC50.
Representative compounds of the present invention were tested according to the procedure described in Biological Example 1 above, with results in Table 8 below. In Table 8 below, where multiple values are listed for a particular compound, said numbers represent individual measurements (tests) for said compound.

[2] = test system: platelets in platelet-rich plasma; assay: Har peptide-induced platelet aggregation in platelet-rich plasma
Method: (§1) The procedure for this assay is similar to that described in Biological Example 2, above. Briefly, platelet aggregation studies were performed according to the method of Bednar et al. (Bednar, B., Condra, C., Gould, R. J., and Connolly, T. M., Thromb. Res., 77:453-463 (1995)). Platelet-rich plasma (PRP) concentrates prepared from healthy volunteers who were aspirin free for at least 7 days by venipuncture using EDTA as anticoagulant was purchased from Biological Specialties, Inc. (Colmar, Pa.). PPP (platelet-poor-plasma) was obtained by centrifugation of PRP at Max (3,000 rpms) for 15 min at room temperature. PRP was diluted to yield platelet count of 300×10^3 platelets/μL with PPP. For thrombin induced platelet aggregation: 118 μL of 500 mM GPRP-NH2 was added to 12 mL of 300×10^3 platelets before using (to clean the fibrinogen in the plasma.) GPRP was added just before the experiment. 15 μL of test compound solutions were added to 120 μL of platelets 5 min prior the agonist additions. Platelet aggregation was initiated by the addition of agonist shown to achieve 60-70% aggregation. Antagonist potency was estimated as a % inhibition of the control Har peptide or thrombin response to obtain an IC50.
(§2) Where multiple values are listed for a particular compound, said numbers represent individual measurements (tests) for said compound.

[3] = test system: platelets in platelet-rich plasma; assay: Thrombin-induced platelet aggregation in platelet-rich plasma; settings: read-out: Platelet Rich Plasma Aggregation Thrombin IC50, multiple values = individual measurements
Method: as §1, §2

IC50 [1]	IC50 [3]	IC50 ([2]; read-out: Platelet Rich Plasma Aggregation Har IC50, multiple values = individual measurements)	Structure (SMILES)	Platelet Rich Plasma Aggregation Har, % inhibition @10 μM ([2]; 10 μM compound, 10 µM)
0.057 µM and 0.2 µM and 0.22 µM			COc1c(N2CCOCC2)cc(C(=O)CN2Cc3cc4c(cc3C2=N)OCc2cccnc2CO4)cc1C(C)(C)C	
0.58 µM and 0.54 µM	7500 nM		COc1c(N2CCOCC2)cc(C(=O)CN2Cc3cc4c(cc3C2=N)OCCN(c2ccccc2)CCO4)cc1C(C)(C)C	33%@10 μM and 38%@10 μM
> 3 µM	> 10000 nM	> 10000 nM	COc1c(N2CCOCC2)cc(C(=O)CN2Cc3cc4c(cc3C2=N)OCCN(C(C)=O)CCO4)cc1C(C)(C)C	
0.13 µM and 1.3 µM and 0.61 µM			COc1c(N2CCOCC2)cc(C(=O)CN2Cc3cc4c(cc3C2=N)OCCN(S(=O)(=O)c2ccc(C)cc2)CCO4)cc1C(C)(C)C	

The remaining lines, values behind:

Structure (SMILES)	IC50 [1]	IC50 [3]	IC50 ([2]; read-out: Platelet Rich Plasma Aggregation Har IC50, multiple values = individual measurements)	Platelet Rich Plasma Aggregation Har, % inhibition @10 μM ([2]; 10 μM compound, 10 µM)
CC(C)(C)c1cc(C(=O)CN2Cc3cc4c(cc3C2=N)OCCNCCO4)cc(C(C)(C)C)c1O	> 1 µM			
CC(C)(C)OC(=O)N1CCOc2cc3c(cc2OCC1)C(=N)N(CC(=O)c1cc(C(C)(C)C)c(O)c(C(C)(C)C)c1)C3	0.109 µM			
COC(=O)c1ccc2c(c1)COc1cc3c(cc1OC2)CN(CC(=O)c1cc(Br)c(OC)c(C(C)(C)C)c1)C3=N	0.189 µM			
